Assay results as given in article PMC5604227 (Biochemistry, 2016).

Chains of the proteins cited; added tags and fusions are not shown.
UniProt P0A884, whole entry C146S: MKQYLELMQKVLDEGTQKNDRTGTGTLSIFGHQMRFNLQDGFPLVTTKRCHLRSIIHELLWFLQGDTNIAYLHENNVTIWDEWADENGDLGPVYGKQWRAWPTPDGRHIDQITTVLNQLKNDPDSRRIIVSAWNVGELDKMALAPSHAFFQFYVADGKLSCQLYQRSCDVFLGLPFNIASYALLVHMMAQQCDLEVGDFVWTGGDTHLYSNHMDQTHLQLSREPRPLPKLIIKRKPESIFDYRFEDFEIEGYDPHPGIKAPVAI

Target: C146S-dUMP complex (Escherichia coli, UniProt P0A884, C146S)
Test: biochemical
Assay type: binding, E. coli

`Cc1nc2ccc(CN(C)c3ccc(C(=O)N[C@@H](CCC(=O)O)C(=O)O)s3)cc2c(=O)[nH]1` [Raltitrexed] was tested, and the Kd was ~0.5 µM.
